Experimental findings from ChEMBL document CHEMBL1142953, “Calcitonin gene-related peptide analogues with aza and indolizidinone amino acid residues reveal conformational requirements for antagonist activity at the human calcitonin gene-related peptide 1 receptor” (J Med Chem, 2007) are described below.

Protein sequences, listed by entry. Tags and fused reporters are not part of them. Lines headed by an entry give the natural chain unless they say otherwise; changes in a name come on top.
UniProt O60894: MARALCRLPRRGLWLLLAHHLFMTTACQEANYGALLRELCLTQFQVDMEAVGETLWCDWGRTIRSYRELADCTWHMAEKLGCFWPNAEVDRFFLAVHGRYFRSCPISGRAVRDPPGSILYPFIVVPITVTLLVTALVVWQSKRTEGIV
UniProt Q16602: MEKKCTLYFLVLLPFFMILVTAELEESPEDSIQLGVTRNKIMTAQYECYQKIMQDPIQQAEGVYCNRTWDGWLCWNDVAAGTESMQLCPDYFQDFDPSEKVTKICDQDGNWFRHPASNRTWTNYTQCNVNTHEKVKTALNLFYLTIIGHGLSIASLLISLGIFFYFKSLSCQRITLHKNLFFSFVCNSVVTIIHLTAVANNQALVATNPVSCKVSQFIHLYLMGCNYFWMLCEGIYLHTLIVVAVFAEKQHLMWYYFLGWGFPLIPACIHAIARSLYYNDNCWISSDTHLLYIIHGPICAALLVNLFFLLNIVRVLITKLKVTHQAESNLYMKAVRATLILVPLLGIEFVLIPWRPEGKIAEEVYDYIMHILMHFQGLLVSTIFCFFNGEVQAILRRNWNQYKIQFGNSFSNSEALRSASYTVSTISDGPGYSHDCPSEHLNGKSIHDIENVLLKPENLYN

In general, IC50 refers to the concentration at which inhibition is half-maximal.

The target of this assay is Calcitonin gene-related peptide type 1 receptor (Homo sapiens, UniProt O60894+Q16602). The assay can be described thus: Antagonist activity against human CGRP1 expressed in HEK293 cells assessed as inhibition of human alpha-CGRP-promoted cAMP production. Format: functional, cell-based. In outline:
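HEK293 cells stably expressing CRLR, seeded at 5000 cells/well. Cells preincubated with peptide analogues for 15 min at 37 °C, then stimulated with 0.5 nM α-CGRP for 15 min at 37 °C. cAMP measured with a fluorescence-based kit. Peptides tested up to 100 µM. At least three independent experiments in triplicate, analysed by nonlinear curve fitting; mean ± SEM.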

As to `CC(C)[C@H](NC(=O)[C@H](CC(=O)O)NC(=O)[C@@H](NC(=O)[C@@H]1CCCN1C(=O)[C@@H](NC(=O)[C@@H](N)Cc1ccccc1)C(C)C)[C@@H](C)O)C(=O)NCC(=O)N1CCC[C@H]1C(=O)N[C@@H](Cc1ccccc1)C(=O)N[C@@H](C)C(=O)N[C@@H](Cc1ccccc1)C(N)=O`, the IC50 is 708 nM.
